These are literature values, as cited in patent EP0866709B1, “1,2,4-BENZOTRIAZINE OXIDES FORMULATIONS” (priority 1995, dated 1997).

Where two headings read alike, the source gives them in different places.

Series [1] deals with hypoxic cells. As to conditions: Rodent; in vitro; drug concentration required under aerobic vs. hypoxic conditions for equivalent cell killing; cited from earlier work.
In series [2] the test system is hypoxic cells. The note with it: Human; in vitro; drug concentration required under aerobic vs. hypoxic conditions for equivalent cell killing; cited from earlier work.

As to Mitomycin C, the results for the “Hypoxic Cytotoxicity Ratio” value with hypoxic cells [1] and in the series on hypoxic cells [2] were 1-5 and 1-2, respectively.
